{"source": "patent US9845310B2", "about": "(priority 2015, dated 2017)", "system": "heart failure rat model", "assay_type": "in vivo", "conditions": "male Lewis rats, heart failure by permanent ligation of left descending coronary artery, ejection fraction <35%; dosed acutely for 30 min", "procedure": "Male Lewis rats (Charles River, USA) at 2-3 months of age were used for the study. […] APJ agonists were administered dose dependently acutely for a period of 30 min."}
{"smiles": "COc1cccc(OC)c1-n1c(NS(=O)(=O)[C@@H](C)[C@H](O)c2ncc(C)cn2)nnc1-c1cncc(C)c1", "note": "[Example 371.0, (1R,2S)-N-(4-(2,6-dimethoxyphenyl)-5-(5-methylpyridin-3-yl)-4H-1,2,4-triazol-3-yl)-1-hydroxy-1-(5-methylpyrimidin-2-yl)propane-2-sulfonamide]", "values": [{"measurement": "cardiac contractility as measured by dP/dtmax (derivative of left ventricular pressure)", "value": "increase in cardiac contractility"}]}
